Assay results as given in ChEMBL document CHEMBL1134153, “Novel bicyclic lactam inhibitors of thrombin: potency and selectivity optimization through P1 residues” (Bioorg Med Chem Lett, 2001).

Target: Prothrombin (Rattus norvegicus, UniProt P18292)
Test: In vitro ability to inhibit the amidolytic activity of thrombin

N/C(=N\O)N1CCC(CNC(=O)[C@@H]2CC[C@H]3CN(S(=O)(=O)Cc4ccccc4)CC(=O)N32)CC1
Ki: 14 nM
